# Rango complex inh: inhibitors of Rango-importin beta complex formation; Q14974; Rango CFP/YFP FRET sensor + importin beta, 45 min; Potency, µM (doses to about 92.2 µM), for inactives: top-dose inhibition of complex formation; actives 0.031% (n = 340,000); calls by dose curve;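 also: 0% = DMSO wells and 100% = buffer wells lacking importin beta; nearly all actives have a fitted effect of over 15% in size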
#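 FRET biosensor (snurportin 1 IBB flanked by EYFP and cerulean), 50 nM, with compound 5 min, then 0.125 microM importin beta in PBS, 1 mM DTT, 0.02% Tween-20, 0.1% BSA. CFP/YFP ratio read after 45 min at room temperature; pre-read flags interference.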
# USP2a block: USP2a (human) protease inhibition. USP2 core, Ub-CHOP2 coupled fluorogenic reporter, 485/531. Potency, µM (titrated, usually from 38.3 µM), for inactives: top-dose activity change, negative = inhibition, most hits filed as inhibitors. actives 0.01% (n = 330,000). AID 463254;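 also: plate controls were DMSO wells for no effect and full inhibition by NEM control for full effect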
#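 Cell-free coupled assay: 10nM USP2 core preincubated 30min RT with compound in Tris-HCl pH 8.0/CaCl2/CHAPS buffer, then 25nM Ub-CHOP2 and 25nM reporter substrate; fluorescence (Ex 485/Em 531) read after 60min RT, normalized to NEM inhibition, concentration-response curves fitted.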
# Eya2 phos inh: inhibitors of human Eya2 phosphatase activity; O00167; recombinant Eya2, OMFP fluorescence dephosphorylation (OMFP is methylfluorescein phosphate); Potency, µM (highest dose often 76.9 µM), inactives show at the top dose activity, negative = inhibition, actives largely listed as inhibitors; actives 0.006% (n = 330,000); AID 488837; also: % is scaled to controls: 0 for no effect and ±100 for the full control effect
#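 Eya2 (0.2 uM) preincubated 10 min at ambient with compound, then OMFP substrate added at 50 uM; 10 min reaction in 50 mM HEPES pH 7.5, 50 mM NaCl, 5 uM MgCl2, 0.05% BSA, 1 mM DTT. Fluorescence read at Ex 485/Em 525 nm.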
# Rango release inh: inhibition of RanGTP-driven Rango-importin beta dissociation; O95149+P62826; Biochemical FRET Rango-importin beta, RanGTP-induced dissociation; Potency, µM (top dose mostly 46.1 µM), for inactives: at the highest dose activity change, negative = inhibition; actives 0.071% (n = 340,000); AID 540253; calls by dose curve; also: % of control where 0% means no effect; nearly all actives have a fitted effect of over 45% in size
#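 FRET read at 45 min, room temperature: inhibitors block the CFP/YFP signal rise when RanGTP (0.6 uM Ran, 2 mM GTP, 0.2 uM RCC1) frees Rango (0.1 uM) from importin beta (0.25 uM). Pre-read after 5 min compound exposure flags interference.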
# * hit, by the source's call; u = inconclusive; x = no result given; [ ] = remark or other dose. Only some compounds are listed: those with a hit (about 0.11% of all), similar ones and a draw of the others. Unless noted, calls follow the shape of the dose curve; as a rule, active = well fitted inhibition curve with a large enough effect; inconclusive = small, poorly fitted or top-dose-only effect, or effect the other way; inactive = flat fitted curve, though single readings scatter. Potency is read from the fitted curve at half-maximal effect.
nr | compound | Rango complex inh | USP2a block
1 | COC(=O)c1ccc(NCc2c(O)ccc(O)c2Br)cc1Cl | -3% | x
2 | COC(=O)c1ccc(NCc2cc(O)ccc2O)cc1O | 18µM* | x
3 | COc1ccc(NC(=O)N2C3CCCC2CC(NC(=O)c2ccccc2)C3)cc1 (configuration not stated) | 0% | -1%
4 | Oc1ccc(COC2CCN(Cc3ccccc3)C2)c2cccnc12 (configuration not stated) | x | 4%
5 | Cc1cc(=O)oc2c(CN3CCCC3)c(O)c(Cl)cc12 | u | -1%
6 | Cc1cc(=O)oc2c(CN3CCCCC3)c(O)c(Cl)cc12 | u | -2%
7 | Cc1cc2c(s1)c(C=O)c(C(=O)NCc1ccccc1F)n2C | x | -2%
8 | O=C(O)[C@@H]1CCCN1S(=O)(=O)c1cccc2cccnc12 | 5% | 3%
9 | Nc1nc(Cl)nc2c1ncn2[C@@H]1O[C@H](COP(=O)(O)OP(=O)(O)OP(=O)(O)O)[C@@H](O)[C@H]1O | x | x
10 | COCCn1c(-c2ccc(-c3ccccc3Cl)o2)nc2c1c(=O)[nH]c(=O)n2CC(C)C | u | 1%
11 | COc1ccc(S(=O)(=O)NCCC(=O)N2CCCC2)cc1N(C)S(C)(=O)=O | 1% | 3%
12 | Oc1ccc(Br)cc1/C=N/n1c(C2CCCCC2)n[nH]c1=S | u | -17%

nr | Eya2 phos inh | Rango release inh
1 | x | 2%
2 | x | 8%
3 | -5% | -1%
4 | 5% | x
5 | 3% | 15µM*
6 | -8% | u
7 | -21% | x
8 | -5% | 8%
9 | -10% | x
10 | -14% | 6.5µM*
11 | 1% | 21%
12 | -12% | 15µM*

# Remaining list, next part
nr | compound | Rango complex inh | USP2a block
13 | CCOC(=O)COc1ccc(S(=O)(=O)NC2CC2)cc1 | -2% | -1%
14 | O=[N+]([O-])c1ccccc1N/N=C/c1c[nH]c2ccccc12 | 2% | 3%
15 | O=[N+]([O-])c1ccc(N/N=C/c2c[nH]c3ccccc23)cc1 | 21µM* | -2%
16 | Cc1ccc(C(=O)COC(=O)CN2C(=O)C3C4C=CC(C4)C3C2=O)cc1C (configuration not stated) | -1% | 1%
17 | CN1/C(=C\C=C2/SC(=S)NC2=O)C(C)(C)c2ccccc21 | 23µM* | u
18 | CN1C(=CC=C2C=C(I)C(=O)C(I)=C2)C(C)(C)c2ccccc21 | 1% | -1%
19 | COc1cccc2c1O/C(=N\O)C(C(=O)Nc1cccc(Br)c1)C2 (configuration not stated) | 0% | 6%
20 | CC(=O)c1ccc(NC(=O)CN2C(=O)/C(=C/C=C/c3ccccc3)SC2=S)cc1 | 29µM* | 2%
21 | CN1C(=O)c2cccc3c(S(N)(=O)=O)ccc1c23 | u | 2%
22 | COc1cccc(CC(=O)Nc2cccc3ccccc23)c1 | -1% | 0%
23 | N=C1c2c(cc(=O)n3c2[nH]c2ccccc23)CN1CCN1CCOCC1 | u | 2%
24 | COC1OC(COC(=O)c2ccccc2)C(OC(=O)c2ccccc2)C1OC(=O)c1ccccc1 (configuration not stated) | 1% | -11%

nr | Eya2 phos inh | Rango release inh
13 | 8% | 13%
14 | -9% | -15%
15 | 1% | u
16 | 3% | 14%
17 | u | u
18 | -11% | -7%
19 | -17% | -1%
20 | 8% | 20%
21 | 8% | 0.58µM*
22 | 2% | 5%
23 | 11% | 21µM*[inhibitor]
24 | -6% | 4%

# Next compounds follow.
nr | compound | Rango complex inh | USP2a block
25 | O=C(OC[C@H]1O[C@@H](OC(=O)c2cc(O)c(O)c(OC(=O)c3cc(O)c(O)c(O)c3)c2)[C@H](OC(=O)c2cc(O)c(O)c(OC(=O)c3cc(O)c(O)c(O)c3)c2)[C@@H](OC(=O)c2cc(O)c(O)c(OC(=O)c3cc(O)c(O)c(O)c3)c2)[C@@H]1OC(=O)c1cc(O)c(O)c(OC(=O)c2cc(O)c(O)c(O)c2)c1)c1cc(O)c(O)c(OC(=O)c2cc(O)c(O)c(O)c2)c1 | x | 5µM*
26 | CCN1/C(=C/c2ccc3cccc(C)c3[n+]2CC)Sc2ccccc21 | 52µM* | 3%
27 | CC(C)C/C(O)=C/c1nc2cc(Cl)ccc2oc1=O | u | 2%
28 | O=c1oc2ccc(Cl)cc2nc1/C=C(\O)c1ccco1 | -1% | 0%
29 | N[C@H](C(=O)O)[C@H](Cc1ccccc1)C(=O)O | x | x
30 | N=C1/C(=C\c2ccc(Br)o2)C(=O)N=C2SC(CC(=O)N3CCCCC3)=NN12 | u | -3%
31 | N=C1C(c2nc3ccccc3c(=O)[nH]2)=C(O)CN1CCc1ccccc1 | 2% | 0.79µM*
32 | N=C1C(c2nc3ccccc3c(=O)[nH]2)=C(O)CN1CCO | -4% | 3%
33 | COc1ccc(C2=CC(c3ccc(OC)c(OC)c3)NC(=S)N2)cc1 (configuration not stated) | u | 1%
34 | COc1cccc(C2=CC(c3ccc(OC)c(OC)c3)NC(=S)N2)c1 (configuration not stated) | u | 5%
35 | Cc1cc(C(=O)N/N=C/c2cc(Br)cc(Br)c2OC(=O)c2cccc(F)c2)n[nH]1 | u | 1%
36 | Cc1cc(C(=O)N/N=C/c2cc(Br)cc(Br)c2OC(=O)c2ccccc2)n[nH]1 | x | 1%

nr | Eya2 phos inh | Rango release inh
25 | 2% | x
26 | u | 5%
27 | -2% | 15µM*
28 | u | -19%
29 | 0% | x
30 | 7% | 6.5µM*
31 | 3% | 0%
32 | 11% | -14%
33 | 11% | u
34 | -14% | 7.3µM*
35 | 9% | 3.7µM*
36 | 0% | x

# (further entries)
nr | compound | Rango complex inh | USP2a block
37 | O=C(NCC(=O)N1CCN(S(=O)(=O)c2cccc(F)c2)CC1)c1ccc(Br)o1 | 0% | -2%
38 | CN(C)CCNS(=O)(=O)c1ccc2c3c(cccc13)C(=O)N2 | u | -1%
39 | O=C1Nc2ccc(S(=O)(=O)NCc3ccccn3)c3cccc1c23 | u | 4%
40 | CC(=O)N1CCN(c2ccc(NCc3ccc(-c4cccc(Cl)c4)o3)cc2)CC1 | u | 0%
41 | CCCCCCCCNS(=O)(=O)CCNCc1ccccc1 | -1% | x
42 | CCCCCCCCNS(=O)(=O)CCNCCc1ccccc1 | 73µM* | x
43 | COc1ccc2c(c1)O/C(=C\c1sccc1C)C2=O | u | 0%
44 | COC(=O)CCC(=O)OC1(C)C(=O)C2=CN(CC(C)C)C(c3ccc(OC)cc3)=CC2=C(Br)C1=O (configuration not stated) | x | 0%
45 | COC(=O)CCC(=O)OC1(C)C(=O)C2=CN(c3ccccc3)C(c3ccc(OC)cc3)=CC2=C(Br)C1=O (configuration not stated) | u | x
46 | COC(=O)C1=CN(Cc2ccc(OC)c(OC)c2)C=C(C(=O)OC)C1c1cccc(F)c1 | u | 1%
47 | Cc1nc(SCc2nc3c([N+](=O)[O-])cccc3[nH]2)c2oc3ccccc3c2n1 | -1% | 3%
48 | CC[n+]1ccccc1/C=C/c1ccc(N(C)C)cc1 | 8.2µM* | 2%
49 | Cc1ccc(/C=C/C(=O)c2ccccc(=O)c2O)c(C)c1 | u | 0%

nr | Eya2 phos inh | Rango release inh
37 | 21% | -5%
38 | -2% | u
39 | 20% | 7.3µM*
40 | -3% | 12µM*
41 | x | -10%
42 | x | 44%
43 | 12% | 10µM*
44 | -6% | x
45 | x | 16µM*
46 | -23% | 5.8µM*
47 | -18% | 6%
48 | -4% | u
49 | -1% | 8.2µM*

# Just Eya2 phos inh and Rango complex inh, for some of the entries so far:
no.	canonical_smiles	Eya2 phos inh	Rango complex inh
41	CCCCCCCCNS(=O)(=O)CCNCc1ccccc1	x	-1%
42	CCCCCCCCNS(=O)(=O)CCNCCc1ccccc1	x	73µM*

# In the list so far, 3 have two or more sulfur atoms:
nr | compound | Rango complex inh | USP2a block
11 | COc1ccc(S(=O)(=O)NCCC(=O)N2CCCC2)cc1N(C)S(C)(=O)=O | 1% | 3%
17 | CN1/C(=C\C=C2/SC(=S)NC2=O)C(C)(C)c2ccccc21 | 23µM* | u
20 | CC(=O)c1ccc(NC(=O)CN2C(=O)/C(=C/C=C/c3ccccc3)SC2=S)cc1 | 29µM* | 2%

nr | Eya2 phos inh | Rango release inh
11 | 1% | 21%
17 | u | u
20 | 8% | 20%

# Source: PubChem BioAssay
